Measured values from patent US7371739B2, “Aryl fructose-1,6-bisphosphatase inhibitors” (Metabasis Therapeutics, Inc., priority 2000, dated 2008).
pIC50: −log10 of the molar value.

Chains of the proteins cited; added tags and fusions are not shown. Residues count along the entry.
UniProt P09467, 2-338 limits assumed: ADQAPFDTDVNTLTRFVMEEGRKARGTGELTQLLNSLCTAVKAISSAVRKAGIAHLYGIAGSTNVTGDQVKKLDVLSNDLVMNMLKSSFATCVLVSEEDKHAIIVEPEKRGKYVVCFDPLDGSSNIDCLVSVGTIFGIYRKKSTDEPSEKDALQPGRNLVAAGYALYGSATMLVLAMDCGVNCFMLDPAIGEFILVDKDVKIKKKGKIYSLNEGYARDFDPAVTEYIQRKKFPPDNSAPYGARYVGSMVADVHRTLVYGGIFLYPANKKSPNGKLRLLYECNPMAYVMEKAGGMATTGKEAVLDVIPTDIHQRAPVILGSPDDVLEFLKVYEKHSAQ

Molecular target: human liver FBPase (Homo sapiens, UniProt P09467)
Experiment: Inhibition of Human Liver FBPase
Conditions: read-out: Human Liver FBPase IC50; recombinant hlFBPase, 0.150 mM fructose-1,6-bisphosphate, pH 7.4, 37° C.

pIC50: 5.59
SMILES: COC(=O)c1cc(N)cc(-c2ccc(P(=O)(O)O)o2)c1
